Biological target: Wee1-like protein kinase (Homo sapiens, UniProt P30291)

Protein sequences, listed by entry. Tags and fused reporters are not part of them. Lines headed by an entry give the natural chain unless they say otherwise; changes in a name come on top.
UniProt P30291: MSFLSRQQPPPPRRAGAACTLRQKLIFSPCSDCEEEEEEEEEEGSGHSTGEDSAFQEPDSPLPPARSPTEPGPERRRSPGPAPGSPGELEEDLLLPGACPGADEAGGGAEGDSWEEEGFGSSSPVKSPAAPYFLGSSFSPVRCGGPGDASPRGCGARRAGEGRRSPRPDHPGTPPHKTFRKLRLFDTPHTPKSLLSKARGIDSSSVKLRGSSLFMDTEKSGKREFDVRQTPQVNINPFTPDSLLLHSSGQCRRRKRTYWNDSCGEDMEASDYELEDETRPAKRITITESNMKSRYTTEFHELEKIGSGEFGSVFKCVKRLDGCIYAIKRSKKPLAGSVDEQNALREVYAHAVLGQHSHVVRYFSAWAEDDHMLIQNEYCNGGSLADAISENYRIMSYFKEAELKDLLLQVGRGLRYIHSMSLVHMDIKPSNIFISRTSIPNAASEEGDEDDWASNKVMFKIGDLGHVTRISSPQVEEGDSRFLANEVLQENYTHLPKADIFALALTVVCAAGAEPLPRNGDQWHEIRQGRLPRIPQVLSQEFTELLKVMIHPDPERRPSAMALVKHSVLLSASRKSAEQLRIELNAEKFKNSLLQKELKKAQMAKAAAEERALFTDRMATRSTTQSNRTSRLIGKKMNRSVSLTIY

Structure (SMILES) | IC50
Cn1c2ccc(O)cc2c2c3c(c(-c4ccccc4)cc21)C(=O)NC3=O | 140 nM
O=C(O)CCn1c2ccc(O)cc2c2c3c(c(-c4ccccc4)cc21)C(=O)NC3=O | 23 nM
O=C1NC(=O)c2c1c(-c1ccccc1)cc1c2c2cc(O)ccc2n1CCn1ccnc1 | 230 nM
CN(C)CCNC(=O)CCn1c2ccc(O)cc2c2c3c(c(-c4ccccc4)cc21)C(=O)NC3=O | 170 nM

— ChEMBL document CHEMBL1156685, “Synthesis and structure-activity relationships of N-6 substituted analogues of 9-hydroxy-4-phenylpyrrolo[3,4-c]carbazole-1,3(2H,6H)-diones as inhibitors of Wee1 and Chk1 checkpoint kinases” (Eur J Med Chem, 2008)
